Results reported in patent US10040791B2, “Isoxazole derivative as mutant isocitrate dehydrogenase 1 inhibitor” (Daiichi Sankyo Company, Limited, priority 2014, dated 2018).
Read-outs that look alike come from different tables or passages of the source.

Amino acid sequences for entries named in this document (tags omitted).
UniProt O75874, whole entry R132H: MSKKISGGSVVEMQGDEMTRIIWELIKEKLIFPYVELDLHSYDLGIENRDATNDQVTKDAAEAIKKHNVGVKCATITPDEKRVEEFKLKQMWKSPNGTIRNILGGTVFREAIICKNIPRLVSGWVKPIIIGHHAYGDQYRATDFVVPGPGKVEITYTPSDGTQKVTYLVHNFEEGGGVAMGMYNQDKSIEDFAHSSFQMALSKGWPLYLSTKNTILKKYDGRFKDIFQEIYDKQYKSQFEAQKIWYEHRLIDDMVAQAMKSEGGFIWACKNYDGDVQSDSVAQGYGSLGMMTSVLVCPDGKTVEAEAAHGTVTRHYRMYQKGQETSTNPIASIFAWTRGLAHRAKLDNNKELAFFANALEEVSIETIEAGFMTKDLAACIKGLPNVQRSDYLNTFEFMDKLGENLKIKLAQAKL

Columns and labels:
[1] = tested on: IDH1R132H-expressing TF-1 cells (TF-1/IDH1R132H); test: Inhibitory activity of 2-HG production using IDH1R132H-expressing TF-1 cells; type: cell-based, human
[2] = tested on: TF-1/IDH1R132H cells; test: Inhibitory activity of TF-1/IDH1R132H cell growth (ATPlite); type: cell-based, human; details: read-out: Test Example 4 IC50
[3] = target: IDH1R132H (Homo sapiens (Human), UniProt O75874, R132H); test: Inhibitory activity against IDH1R132H enzyme (NADPH detection, WST-8); type: biochemical; details: 12 nM, residual NADPH detected with WST-8, read-out: Test Example 1 IDH1 R132H IC50
[4] = Homo sapiens, 2-HG production, IDH1R132H-expressing TF-1 cells, read-out: Test Example 2 IC50
[5] = Homo sapiens, TF-1, read-out: Test Example 2 IC50 (nM)

Compound | IC50 [1, 4] [nM] | IC50 ([2]; Homo sapiens) [nM] | IC50 [3] [nM] | IC50 [1, 5] [nM] | IC50 ([1]; 2-HG production, IDH1R132H-expressing TF-1 cells, read-out: Test Example 2 IC50) [nM] | IC50 [2] [nM]
CC(C)(F)c1onc(-c2c(Cl)cc(Cl)cc2Cl)c1C(=O)n1cc2c3c(cccc31)/C(=C/C(=O)O)CC2 [Example 13, (2E)-[1-{[5-(2-Fluoropropan-2-yl)-3-(2,4,6-trichlorophenyl)-1,2-oxazol-4-yl]carbonyl}-3,4-dihydrobenzop[cd]indol-5(1H)-ylidene]ethanoic acid] | 55 | 151 | 18 | – | – | –
CC(C)(F)c1onc(-c2c(F)cc(Cl)cc2Cl)c1C(=O)n1cc2c3c(cccc31)/C(=C/C(=O)O)CC2 [Example 16, (2E)-[1-{[3-(2,4-Dichloro-6-fluorophenyl)-5-(2-fluoropropan-2-yl)-1,2-oxazol-4-yl]carbonyl}-3,4-dihydrobenzo[cd]indol-5(1H)-ylidene]ethanoic acid] | 73 | 143 | 15 | – | – | –
CC(C)(F)c1onc(-c2c(Cl)cc(Cl)cc2Cl)c1C(=O)n1ccc2c3c(ccc21)CCC(C(=O)O)C3 (stereo not drawn) [Example 18, 3-{[5-(2-Fluoropropan-2-yl)-3-(2,4,6-trichlorophenyl)-1,2-oxazol-4-yl]carbonyl}-6,7,8,9-tetrahydro-3H-Benzo[e]indole-8-carboxylic acid] | 121 | 447 | 19 | – | – | –
Cc1cn(C(=O)c2c(-c3c(Cl)cc(Cl)cc3Cl)noc2C(C)(C)F)c2cccc(/C=C/C(=O)O)c12 [Example 21, (2E)-3-(1-{[5-(2-Fluoropropan-2-yl)-3-(2,4,6-trichlorophenyl)-1,2-oxazol-4-yl]carbonyl}-3-methyl-1H-indol-4-yl)prop-2-enoic acid] | – | 58 | 12 | 49 | – | –
CC(C)(C)c1onc(-c2c(Cl)cc(Cl)cc2Cl)c1C(=O)n1ccc2c(/C=C/C(=O)O)cccc21 [Example 22, (2E)-3-(1-{[5-(tert-Butyl)-3-(2,4,6-trichlorophenyl)-1,2-oxazol-4-yl]carbonyl}-1H-indol-4-yl)prop-2-enoic acid] | 110 | 159 | 31 | – | – | –
CC(C)(C)c1onc(-c2c(Cl)cc(Cl)cc2Cl)c1C(=O)n1cc(F)c2c(/C=C/C(=O)O)cccc21 [Example 40, (2E)-3-(1-{[5-(tert-Butyl)-3-(2,4,6-trichlorophenyl)-1,2-oxazol-4-yl]carbonyl}-3-fluoro-1H-indol-4-yl)prop-2-enoic acid] | 39 | 62 | 21 | – | – | –
COC1(c2onc(-c3c(Cl)cc(Cl)cc3Cl)c2C(=O)n2ccc3c(/C=C/C(=O)O)cccc32)CC1 [Example 44, (2E)-3-(1-{[5-(1-Methoxycyclopropyl)-3-(2,4,6-trichlorophenyl)-1,2-oxazol-4-yl]carbonyl}-1H-indol-4-yl)prop-2-enoic acid] | 177 | 257 | 22 | – | – | –
CC(C)(F)c1onc(-c2c(F)cc(Cl)cc2Cl)c1C(=O)n1ccc2c(/C=C/C(=O)O)cccc21 [Example 46, (2E)-3-(1-{[3-(2,4-Dichloro-6-fluorophenyl)-5-(2-fluoropropan-2-yl)-1,2-oxazol-4-yl]carbonyl}-1H-indol-4-yl)prop-2-enoic acid] | 294 | 657 | 28 | – | – | –
Cc1cn(C(=O)c2c(-c3c(F)cc(Cl)cc3Cl)noc2C(C)(C)F)c2cccc(/C=C/C(=O)O)c12 [Example 47, (2E)-3-(1-{[3-(2,4-Dichloro-6-fluorophenyl)-5-(2-fluoropropan-2-yl)-1,2-oxazol-4-yl]carbonyl}-3-methyl-1H-indol-4-yl)prop-2-enoic acid] | 33 | 42 | 13 | – | – | –
CC(C)(C)c1onc(-c2c(Cl)cc(Cl)cc2Cl)c1C(=O)n1ccc2c(/C=C/C(=O)O)ccc(F)c21 [Example 48] | – | – | 29 | – | 134 | 216
Cc1cn(C(=O)c2c(-c3c(Cl)cc(F)cc3Cl)noc2C(C)(C)F)c2cccc(/C=C/C(=O)O)c12 [Example 49, (2E)-3-(1-{[3-(2,6-Dichloro-4-fluorophenyl)-5-(2-fluoropropan-2-yl)-1,2-oxazol-4-yl]carbonyl}-3-methyl-1H-indol-4-yl)prop-2-enoic acid] | 89 | 51 | 9 | – | – | –
Cc1cn(C(=O)c2c(-c3c(Cl)cc(Cl)cc3Cl)noc2C(C)(F)F)c2cccc(/C=C/C(=O)O)c12 [Example 51, (2E)-3-(1-{[5-(1,1-Difluoroethyl)-3-(2,4,6-trichlorophenyl)-1,2-oxazol-4-yl]carbonyl}-3-methyl-1H-indol-4-yl)prop-2-enoic acid] | – | 271 | 15 | 165 | – | –
Cc1cc(Cl)cc(C)c1-c1noc(C(C)(C)F)c1C(=O)n1cc(C)c2c(/C=C/C(=O)O)cccc21 [Example 55, (2E)-3-(1-{[3-(4-Chloro-2,6-dimethylphenyl)-5-(2-fluoropropan-2-yl)-1,2-oxazol-4-yl]carbonyl}-3-methyl-1H-indol-4-yl)prop-2-enoic acid] | 96 | 130 | 14 | – | – | –
Cc1cc(Cl)cc(Cl)c1-c1noc(C(C)(C)F)c1C(=O)n1cc(C)c2c(/C=C/C(=O)O)cccc21 [Example 59, (2E)-3-(1-{[3-(2,4-Dichloro-6-methylphenyl)-5-(2-fluoropropan-2-yl)-1,2-oxazol-4-yl]carbonyl}-3-methyl-1H-indol-4-yl)prop-2-enoic acid] | 52 | 66 | 15 | – | – | –
Cc1cn(C(=O)c2c(-c3cc(F)c(Cl)cc3Cl)noc2C(C)(C)F)c2cccc(/C=C/C(=O)O)c12 [Example 63, (2E)-3-(1-{[3-(2,4-Dichloro-5-fluorophenyl)-5-(2-fluoropropan-2-yl)-1,2-oxazol-4-yl]carbonyl}-3-methyl-1H-indol-4-yl)prop-2-enoic acid] | 184 | 290 | 15 | – | – | –
CCc1cn(C(=O)c2c(-c3c(Cl)cc(Cl)cc3Cl)noc2C(C)(C)F)c2cccc(/C=C/C(=O)O)c12 [Example 65, (2E)-3-(3-Ethyl-1-{[5-(2-fluoropropan-2-yl)-3-(2,4,6-trichlorophenyl)-1,2-oxazol-4-yl]carbonyl}-1H-indol-4-yl)prop-2-enoic acid] | 68 | 263 | 22 | – | – | –
CC(C)(F)c1onc(-c2c(Cl)cc(Cl)cc2Cl)c1C(=O)n1cc2c3c(c(F)ccc31)/C(=C/C(=O)O)CC2 [Example 67, (2E)-[6-Fluoro-1-{[5-(2-fluoropropan-2-yl)-3-(2,4,6-trichlorophenyl)-1,2-oxazol-4-yl]carbonyl}-3,4-dihydrobenzo[cd]indol-5(1H)-ylidene]ethanoic acid] | 68 | 250 | 17 | – | – | –
CC(C)(C)c1onc(-c2c(Cl)cc(Cl)cc2Cl)c1C(=O)n1cc(C(F)F)c2c(/C=C/C(=O)O)cccc21 [Example 72, (2E)-3-(1-{[5-(tert-Butyl)-3-(2,4,6-trichlorophenyl)-1,2-oxazol-4-yl]carbonyl}-3-(difluoromethyl)-1H-indol-4-yl)prop-2-enoic acid] | 52 | 77 | 25 | – | – | –
COC1(c2onc(-c3c(Cl)cc(Cl)cc3Cl)c2C(=O)n2cc(C)c3c(/C=C/C(=O)O)cccc32)CCC1 [Example 79, (2E)-3-(1-{[5-(1-Methoxycyclobutyl)-3-(2,4,6-trichlorophenyl)-1,2-oxazol-4-yl]carbonyl}-3-methyl-1H-indol-4-yl)prop-2-enoic acid] | 26 | 26 | 21 | – | – | –
COCC1(c2onc(-c3c(Cl)cc(Cl)cc3Cl)c2C(=O)n2cc(C)c3c(/C=C/C(=O)O)cccc32)CCC1 [Example 80, (2E)-3-(1-{[5-[1-(Methoxymethyl)cyclobutyl]-3-(2,4,6-trichlorophenyl)-1,2-oxazol-4-yl]carbonyl}-3-methyl-1H-indol-4-yl)prop-2-enoic acid] | 147 | 144 | 49 | – | – | –
Cc1cn(C(=O)c2c(-c3c(Cl)cc(Cl)cc3Cl)noc2C2(N(C)C)CCC2)c2cccc(/C=C/C(=O)O)c12 [Example 81, (2E)-3-(1-{[5-[1-(Dimethylamino)cyclobutyl]-3-(2,4,6-trichlorophenyl)-1,2-oxazol-4-yl]carbonyl}-3-methyl-1H-indol-4-yl)prop-2-enoic acid] | 24 | 30 | 26 | – | – | –
CNC1(c2onc(-c3c(Cl)cc(Cl)cc3Cl)c2C(=O)n2cc(C)c3c(/C=C/C(=O)O)cccc32)CCC1 [Example 83, (2E)-3-(3-Methyl-1-{[5-[1-(methylamino)cyclobutyl]-3-(2,4,6-trichlorophenyl)-1,2-oxazol-4-yl]carbonyl}-1H-indol-4-yl)prop-2-enoic acid] | 43 | 168 | 11 | – | – | –
Cc1cn(C(=O)c2c(-c3c(Cl)cc(Cl)cc3Cl)noc2C2(CN(C)C)CCC2)c2cccc(/C=C/C(=O)O)c12 [Example 88, (2E)-3-(1-{[5-{1-[(Dimethylamino)methyl]cyclobutyl}-3-(2,4,6-trichlorophenyl)-1,2-oxazol-4-yl]carbonyl}-3-methyl-1H-indol-4-yl)prop-2-enoic acid] | 70 | 190 | 23 | – | – | –
Cc1cn(C(=O)c2c(-c3c(Cl)cc(Cl)cc3Cl)noc2C2(N)CCC2)c2cccc(/C=C/C(=O)O)c12 [Example 90, (2E)-3-(1-{[5-(1-Aminocyclobutyl)-3-(2,4,6-trichlorophenyl)-1,2-oxazol-4-yl]carbonyl}-3-methyl-1H-indol-4-yl)prop-2-enoic acid] | 65 | 372 | 7 | – | – | –
C=CC(=O)N1CCC(c2onc(-c3c(Cl)cc(Cl)cc3Cl)c2C(=O)n2ccc3c(/C=C/C(=O)O)cccc32)CC1 [Example 99] | 167 | 287 | 142 | – | – | –
